Data published in US12383539B2 (Cavion, Inc., priority 2018, dated 2025).

Experiments:
[1] = test system: patients with essential tremor; assay: T-CALM: TETRAS performance subscale (TETRAS-PS); conditions: Day 15, N 39
[2] = Healthy volunteer PK studies PN001/PN002 with IR capsules; assay type: in vivo, human
[3] = test system: patients with essential tremor; assay: T-CALM: Clinical Global Impression of Improvement (CGI-I); assay type: in vivo, human
Source text: The Clinical Global Impressions Scale (CGI) was developed for use in NIMH-sponsored clinical trials to provide a brief, stand-alone assessment of the clinician's view of a patient's global functioning before and after initiating a study medication (Guy (ed.), ECDEU Assessment Manual for Psychopharmacology. Rockville, MD: US Department of Health, Education, and Welfare Public Health Service Alcohol, Drug Abuse, and Mental Health Administration; 1976). The CGI is a summary measure that takes into account all available information, including knowledge of the patient's history, psychosocial circumstances, symptoms, behavior, and the impact of the symptoms on the patient's ability to function. The CGI has two forms—the CGI-Severity, which rates illness severity at baseline, and the CGI-Improvement, which rates change from baseline.
The CGI-I consists of a single 7-point rating of total improvement or change from baseline CGI-S, regardless of whether or not the change is due entirely to drug treatment.
Treatment success as measured by CGI-I was summarized using descriptive statistics.
The Clinical Global Impressions Scale (CGI) generates a clinician's perception of a patient's functioning prior to and after study medication (see, e.g., Guy, Assessment Manual for Psychopharmacology. Rockville, MD: Department of Health, Education, and Welfare Public Health Service Alcohol, Drug Abuse, and Mental Health Administration, 1976). The CGI overall score considers patient history, psychosocial situations, symptoms and behavior with respect to the ability to function. The CGI-Improvement (CGI-I) will involve a single 7-point rating of total improvement or change from baseline CGI-Severity (CGI-S). The clinician rater will select one response (from 1=very much improved to 7=very much worse) based upon the question, “Compared to your patient's condition at the onset of treatment, how much has your patient changed?”

[4] = test system: patients with essential tremor; assay: T-CALM: Patient Global Impression of Change (PGIC); assay type: in vivo, human; conditions: Day 15, total 39
Source text: Global rating of change (GRC) scales were designed to quantify a patient's improvement or deterioration over time, usually either to determine the effect of an intervention or to chart the clinical course of a condition. GRC scales ask a patient to assess his or her current health status, recall that status at the beginning of treatment, and then calculate the difference between the two. The simplicity of GRC scales makes them easy to administer and applicable to a wide range of patients (see, e.g., Kamper et al., 2009 The Journal of Manual & Manipulative Therapy 17(3):163-170).
Treatment success as measured by PGIC was summarized using descriptive statistics.
The Patient Global Impression of Change (PGIC) will quantify a patient's impression of improvement or decline over time with respect to ET treatment (see, e.g., Guy, Assessment Manual for Psychopharmacology. Rockville, MD: Department of Health, Education, and Welfare Public Health Service Alcohol, Drug Abuse, and Mental Health Administration, 1976). The patient will use the PGIC scale to assess current health status versus initiation of treatment and calculate the difference. The 7-point scale will ask the question, “With respect to your ET, how would you describe yourself now compared to when you started taking the study drug?” The patient replies with one of 7 answers from very much worse to very much improved.

CC(C)c1ccc(CC(=O)N[C@H](C)c2ccc(OCC(F)(F)F)cn2)cc1 [CX-8998]
responders: improvement of at least 5 points by TETRAS-PS score, number [1]: 12
t1/2 ([2]; Average of the single-dose studies (dose 16)): 18.4 h
t1/2 ([2]; PN001 Part 1, 16 mg, 1 dose): 14.3 h
t1/2 ([2]; PN001 Part 2, 18 mg, 1 dose): 14.8 h
t1/2 ([2]; PN002 Part 1, 18 mg, 1 dose): 26.1 h
t1/2 ([2]; PN002 Part 2, 12 mg, 1 dose): 18.4 h
AUC0-24 ([2]; PN002 Part 2, 12 mg, 7 doses): 6.1 µM·h
t1/2 ([2]; PN002 Part 2, 12 mg, 7 doses): 14.2 h
responders: improvement by CGI-I, number ([3]; Day 15, N 39): 25
responders: improvement by CGI-I, number ([3]; Day 28, N 37): 24
CGI-I: Improved, number of subjects ([3]; Day 28, total 37): 24
PGIC: Improved, number of subjects [4]: 26
